MC4R antag cAMP: human MC4R antagonism in cAMP assay; MC4R-expressing cells, MTII-stimulated cAMP, LANCE TR-FRET; inhibition, % at 6.5 µM; actives 0.48% (n = 360,000);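 active means inhibition above its plate's cutoff, the mean of tested wells on that plate plus 3 SD, cut at about 29% in these data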;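 further: 0% = Melanotan II alone and 100% = Melanotan II plus saturating MCL0020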
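Material: human MC4R-expressing U2OS cells. Probe or stimulus: Melanotan II challenge. Dosing: 6.5 µM single dose. Times: 30-min compound, 1-h challenge, 1-h detection, room temperature. Technique: TR-FRET with Eu-cAMP and labeled anti-cAMP, 671 nm. Replication: singlicate.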
HDAC3 inhib: blocks human histone deacetylase 3; O15379; recombinant HDAC3, fluorogenic peptide/trypsin coupled, fluorescence; inhibition, % at 8.3 µM; actives 0.15% (n = 320,000); in the data active means inhibition above about 26%, passing the limit was not always enough
Yeast UUG start: alters start codon recognition fidelity in yeast; S. cerevisiae UUG-firefly luciferase reporter, luminescence/redox ratio; activity score, % at 18.7 µM; actives 0.13% (n = 350,000); AID 602363;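 active = replicate mean at a twofold rise or more, about +100% in these data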;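 also: firefly luciferase made from a UUG start codon reports start codon fidelity; reporter light over untreated wells divided by growth signal over untreated wells; some hits fall short of that in this replicate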
MC4R barr agon: agonists of human melanocortin 4 receptor (MC4R) beta-arrestin; activation, % at 8.9 µM; P32245; actives 0.98% (n = 360,000); U2OS MC4R beta-arrestin complementation, luminescence; percent of melanotan II response, DMSO zero;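 active means activation above a per-plate cutoff, the mean activation of sample wells on that plate plus 3 SD, cut at about 8% in these data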
ALR inh: human ALR oxidase inhibition via reduced H2O2; purified ALR, DTT oxidation, H2O2 HRP-luminol luminescence; P55789; 290,000 tested, 3.8% active; AID 485317; inhibition, % (no concentration beside the values);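 active means mean and each replicate at 75% or more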;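 further: stock transfer was 7.5 nL into about 7.5 µL; 0% = neutral wells and 100% = wells with inactivated enzyme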
NALP1 inh: NALP1 inhibition; S. cerevisiae NALP1/ASC/caspase-1 growth, X-gal OD620, 72 h; inhibition, % at 10 µM; actives 0.61% (n = 280,000); in the data active means inhibition mostly above about 24%, no sharp cut-off; inactive means mostly below about 32%
Numbers without * were called inactive; nt = not tested or not shown. Sampled rows, rich in hits. Any-hit rate of the full collection: about 4.2%.

entry	canonical_smiles	Yeast UUG start	ALR inh	HDAC3 inhib	NALP1 inh	MC4R barr agon	MC4R antag cAMP
1	NC(=O)[C@@H]1[C@H]2C(=O)O[C@H](c3ccccc3)[C@H](c3ccccc3)N2[C@H](c2ccc(O)cc2)[C@@]12C(=O)Nc1ccc(C#CC3(O)CCCCCC3)cc12	12	nt	nt	nt	nt	nt
2	COc1ccccc1C(O)(C(=O)NNc1cccc(C)c1)c1ccccc1OC	nt	95*	-1	20	-1	-2
3	COc1ccccc1C(O)(C(=O)NNc1ccccc1C)c1ccccc1OC	nt	6	-11	2	0	-5
4	C[C@H](CO)N1C[C@H](C)[C@@H](CN(C)S(=O)(=O)c2ccc(F)cc2)Oc2ccc(NC(=O)c3ccncc3)cc2CC1=O	-12	nt	nt	nt	nt	nt
5	COc1ccccc1NC(=O)N[C@H]1CC[C@H](CC(=O)N2CCC(Cc3ccccc3)CC2)O[C@H]1CO	17	nt	nt	nt	nt	nt
6	CCOC(=O)C1=C(C)N=c2s/c(=C\c3ccc(OCC(=O)O)cc3)c(=O)n2C1c1ccccc1 (stereo unspecified)	7	98*	10	4	-1	-6
7	CCOC(=O)C1=C(C)N=c2sc(=Cc3ccc(OCC(=O)O)cc3)c(=O)n2C1c1ccc(SC)cc1 (stereo unspecified)	-13	nt	nt	nt	-1	6
8	O=C(c1ccc2c(c1)OCO2)N1CC[C@@H]2[C@H]1c1cc(-c3ccc(F)cc3)ccc1N[C@@H]2CO	0	nt	nt	nt	nt	nt
9	COC(=O)CCc1ccc(O)cc1	-12	14	-2	5	1	10
10	COc1cc(O)ccc1C(=O)CCc1ccc(O)cc1	-14	99*	2	0	1	4
11	O=C(Nc1ccc(OC(=O)c2ccco2)cc1)c1ccco1	-17	4	3	-1	1	-8
12	Nc1cccc(NC(=O)c2ccco2)c1	-11	99*	5	-24	1	15
13	O=C(Nc1ccc(Cl)c(Cl)c1)Oc1ccc(NC(=O)c2ccco2)cc1	-17	38	4	100*	-1	5
14	CC(=O)Nc1cccc(NC(=O)c2ccco2)c1	-28	-15	-5	-15	-1	8
15	Nc1ccc(C(=O)Nc2cccc(N)c2)cc1	-16	99*	2	18	0	11
16	CO[C@@H]1CN(C)C(=O)c2ccc(NC(=O)c3ccc(F)cc3)cc2OC[C@@H](C)N(C(C)=O)C[C@H]1C	3	nt	nt	nt	nt	nt
17	Cc1nn2c(NCCOCCO)c3c(nc2c1-c1ccccc1)CCCC3	-5	86*	8	-5	-3	8
18	Cc1noc(C)c1S(=O)(=O)Nc1ccc2c(c1)C(=O)N([C@H](C)CO)C[C@@H](C)[C@@H](CN(C)C(=O)NC1CCCCC1)OCCCC[C@@H](C)O2	-15	nt	nt	nt	nt	nt
19	Cc1ccc(S(=O)(=O)Nc2cccc3c2O[C@H](CN(C)S(=O)(=O)c2ccccc2)[C@@H](C)CN([C@H](C)CO)C3=O)cc1	-2	nt	nt	nt	nt	nt
20	COc1ccc2c(OC)c3ccoc3nc2c1OC	-9	-22	-34	-6	1	1
21	COc1c2ccoc2nc2c(OC)c(O)ccc12	3	99*	0	-11	1	-4
22	CCC(=O)N1C[C@@H](C)[C@@H](OC)CN(C)C(=O)c2cc(NS(=O)(=O)CC)ccc2OC[C@@H]1C	-6	nt	nt	nt	nt	nt
23	COc1ccc(N2CCN(c3ncccn3)CC2)cc1	-2	99*	0	19	1	1
24	COc1ccc(S(=O)(=O)N2CCN(c3ncccn3)CC2)cc1	nt	-12	6	nt	0	1
25	COc1ccc(N2CCN(Cc3nc4ccccc4n3C)CC2)cc1	nt	89*	3	16	1	9
26	O=C1NCCCC2c3c(cc(Br)c(O)c3Br)OC12N1CCCCC1 (stereo unspecified)	-10	99*	13	10	-2	8
27	COc1ccc(NC(=O)Nc2ccc3c(c2)C(=O)N([C@@H](C)CO)C[C@@H](C)[C@H](CN(C)C(=O)Nc2ccc(C(F)(F)F)cc2)OCCCC[C@H](C)O3)cc1	-13	nt	nt	nt	nt	nt
28	S=C(Nc1ccccc1)N(CCN1CCOCC1)Cc1cccc(Cl)c1	-13	nt	6	5	-2	-2
29	CCN1CCCc2cc(CN(CCN3CCOCC3)C(=S)Nc3ccc(OC)c(Cl)c3)ccc21	nt	99*	-2	4	-2	5
30	COc1ccc(NC(=S)N2CCC(N(C)CCN3CCOCC3)CC2)cc1Cl	-11	-1	1	18	-3	5

Arranged by the number under NALP1 inh (lowest first): 5 of the compounds above
entry	canonical_smiles	Yeast UUG start	ALR inh	HDAC3 inhib	NALP1 inh	MC4R barr agon	MC4R antag cAMP
21	COc1c2ccoc2nc2c(OC)c(O)ccc12	3	99*	0	-11	1	-4
20	COc1ccc2c(OC)c3ccoc3nc2c1OC	-9	-22	-34	-6	1	1
3	COc1ccccc1C(O)(C(=O)NNc1ccccc1C)c1ccccc1OC	nt	6	-11	2	0	-5
9	COC(=O)CCc1ccc(O)cc1	-12	14	-2	5	1	10
23	COc1ccc(N2CCN(c3ncccn3)CC2)cc1	-2	99*	0	19	1	1

(list continues)
entry	canonical_smiles	Yeast UUG start	ALR inh	HDAC3 inhib	NALP1 inh	MC4R barr agon	MC4R antag cAMP
31	CCN1CCCc2cc(CN(CCN3CCOCC3)C(=S)Nc3ccc(OC)c(OC)c3)ccc21	nt	92*	3	-6	0	19
32	Cc1cc(C(=O)NCCC(c2ccccc2)c2ccccc2)c(C)o1	-11	-2	2	40*	1	1
33	Cc1cc(C(=O)NCCCC(=O)O)c(C)o1	-7	-1	5	-3	-2	7
34	CN1CCSc2ccc(C(=O)NCc3ccccc3)cc21	15	39	nt	16	0	10
35	O=C(NCc1ccccn1)c1ccc2c(c1)N(Cc1ccccc1)CCS2	-7	98*	-23	9	1	6
36	CCN1CCSc2ccc(C(=O)NCc3cccc(F)c3)cc21	-17	99*	-36	2	1	14
37	O=C(NCc1cccnc1)c1ccc2c(c1)N(Cc1ccccc1)CCS2	-21	92*	-12	8	-1	1
38	O=C(NC1CCCC1)c1ccc2c(c1)N(Cc1ccccc1)CCS2	-11	17	-2	33	6	2
39	C[C@H](CO)N1C[C@H](C)[C@H](CN(C)Cc2cccnc2)Oc2ncc(/C=C/c3ccccc3)cc2C1=O	-12	nt	nt	nt	nt	nt
40	CCNC(=O)C[C@@H]1C=C[C@@H](NC(=O)NC2CCCCC2)[C@H](CO)O1	-9	nt	nt	nt	nt	nt
41	N#C/C(=N\Nc1cccc([N+](=O)[O-])c1)C(=O)c1ccc(Br)cc1	-10	-3	9	-2	-3	12
42	N#C/C(=N\Nc1cccc(C(F)(F)F)c1)C(=O)c1ccsc1	nt	4	-7	40*	-1	6
43	C[C@H]1CN([C@@H](C)CO)C(=O)c2cc(C#CCc3ccccc3)cnc2O[C@H]1CN(C)C(=O)Cc1cccnc1	-12	nt	nt	nt	nt	nt
44	Cc1ccc(NC(=O)[C@@H]2CCCN2S(=O)(=O)c2ccc(Cl)cc2)cc1	-10	-10	-2	nt	-1	5
45	CC(=O)Oc1ccc(/C=N/NC(=O)C2CCCN2S(=O)(=O)c2ccc(Cl)cc2)cc1 (stereo unspecified)	-5	100*	4	29	1	-1
46	CC12CCC(=O)N1C(C(=O)Nc1cc(Cl)ccc1N1CCCC1)CS2 (stereo unspecified)	3	86*	3	nt	-3	10
47	COc1cccc2cc(-c3csc(CCn4nc(C)cc4C)n3)c(=O)oc12	-14	98*	13	-2	0	7
48	CC/C(C)=N/Nc1nc(-c2cc3cccc(OC)c3oc2=O)cs1	-22	98*	0	7	0	-2
49	Cc1cc(C)n(CCc2nc(-c3ccco3)cs2)n1	-3	99*	6	4	-2	-2

Screens as filed in PubChem.
